Structures can show the parent of a compound that is named as a salt.
Target: human FLAP (Homo sapiens (Human), UniProt P20292)
Assay: FLAP binding assay (HTRF format)
Description: The ability of the compounds of the present invention to treat a FLAP-mediated disease and/or disorder, or associated symptoms or complications thereof, was determined using the following procedures. Binding assay data represent the average value obtained from two different assay plates, with samples run in duplicate on each plate. Human whole blood assay data represent a single replicate on an assay plate using whole blood from at least one healthy donor.
Data are expressed as a HTRF ratio.

Protein sequences, listed by entry. Tags and fused reporters are not part of them. Lines headed by an entry give the natural chain unless they say otherwise; changes in a name come on top.
UniProt P20292: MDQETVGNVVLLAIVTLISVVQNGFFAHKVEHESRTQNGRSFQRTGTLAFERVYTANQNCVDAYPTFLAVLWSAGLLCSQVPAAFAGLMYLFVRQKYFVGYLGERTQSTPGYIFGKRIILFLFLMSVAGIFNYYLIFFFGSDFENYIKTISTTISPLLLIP

[1] = human FLAP wild type, average of two plates, duplicates

Row | Ki (wild type FLAP) [nM] | Ki [1] [nM] | SMILES
1 | 1110 |  | Nc1cnc(-c2ccc(-c3ccccc3C(=O)NC3CCC(O)CC3)cc2F)cn1 (mixture of isomers) [Example 763, (cis/trans) 4′-(5-Aminopyrazin-2-yl)-3′-fluoro-N-(4-hydroxycyclohexyl)biphenyl-2-carboxamide]
2 | 223 |  | CC1CN(C(=O)c2ccccc2-c2ccc(-c3cnc(N)cn3)c(F)c2)CC(C)O1 (mixture of isomers) [Example 773, 5-{2′-[(2,6-Dimethylmorpholin-4-yl)carbonyl]-3-fluorobiphenyl-4-yl}pyrazin-2-amine (diastereoisomeric mixture)]
3 |  | 6 | N#CC1CCCN(S(=O)(=O)c2ccccc2-c2ccc(-c3cnc(N)cn3)c(F)c2)C1 (racemic) [Example 63, racemic 1-{[4′-(5-Aminopyrazin-2-yl)-3′-fluorobiphenyl-2-yl]sulfonyl}piperidine-3-carbonitrile]
4 |  | 2 | Nc1cnc(-c2ccc(-c3ccccc3S(=O)(=O)N3CCCC(O)C3)cc2F)cn1 (racemic) [Example 70, racemic 1-{[4′-(5-Aminopyrazin-2-yl)-3′-fluorobiphenyl-2-yl]sulfonyl}piperidin-3-ol]
5 |  | 2 | Nc1cnc(-c2ccc(-c3ccccc3S(=O)(=O)N3CCCC(CO)C3)cc2F)cn1 (racemic) [Example 76, racemic (1-{[4′-(5-Aminopyrazin-2-yl)-3′-fluorobiphenyl-2-yl]sulfonyl}piperidin-3-yl)methanol]
6 | 23 |  | Nc1ncc(-c2ccc(-c3ccccc3S(=O)(=O)N3CCCC(O)C3)cc2F)cc1F (racemic) [Example 668, (racemic)-1-((4′-(6-Amino-5-fluoropyridin-3-yl)-3′-fluoro-[1,1′-biphenyl]-2-yl)sulfonyl)piperidin-3-ol]
7 | 33.9 |  | CCC(C)S(=O)(=O)c1ncccc1-c1ccc(-c2cnc(N)nc2)c(F)c1 (racemic) [Example 813, racemic 5-(4-(2-(sec-Butylsulfonyl)pyridin-3-yl)-2-fluorophenyl)pyrimidin-2-amine formate]
8 | 2.8 |  | CCC(C)S(=O)(=O)c1ncccc1-c1ccc(-c2cnc(N)cn2)c(F)c1 (racemic) [Example 814, racemic 5-(4-(2-(sec-Butylsulfonyl)pyridin-3-yl)-2-fluorophenyl)pyrazin-2-amine formate]
9 |  | 90 | Nc1cnc(-c2ccc(-c3ccccc3S(=O)(=O)N[C@H]3CCCCNC3=O)cc2F)cn1 (stereo in doubt) [Example 28, (S)-4′-(5-Aminopyrazin-2-yl)-3′-fluoro-N-[(3S)-2-oxoazepan-3-yl]biphenyl-2-sulfonamide]
10 |  | 2 | C[C@H](NS(=O)(=O)c1ccccc1-c1ccc(-c2cnc(N)cn2)c(F)c1)c1ccccc1 [Example 24, (R)-4′-(5-Aminopyrazin-2-yl)-3′-fluoro-N-[(1R)-1-phenylethyl]biphenyl-2-sulfonamide]
11 | 1340 |  | NCCOc1ccccc1-c1ccc(-c2cnc(N)cn2)c(F)c1 [Example 640, 5-[2′-(2-Aminoethoxy)-3-fluorobiphenyl-4-yl]pyrazin-2-amine]
12 | 97.7 |  | CC(=O)NC1CCN(S(=O)(=O)c2ccccc2-c2ccc(-c3cnc(N)c(F)c3)c(F)c2)CC1 [Example 670, N-(1-((4′-(6-Amino-5-fluoropyridin-3-yl)-3′-fluoro-[1,1′-biphenyl]-2-yl)sulfonyl)piperidin-4-yl)acetamide]
13 | 8.2 |  | N#Cc1nc(N)cnc1-c1ccc(-c2ccc(C(F)(F)F)cc2S(=O)(=O)N2CCNC(=O)C2)cc1F [Example 715, 6-Amino-3-{3-fluoro-2′-[(3-oxopiperazin-1-yl)sulfonyl]-4′-(trifluoromethyl)biphenyl-4-yl}pyrazine-2-carbonitrile]
14 | 1010 |  | CC(C)(C)C(=O)CS(=O)(=O)c1ccccc1-c1ccc(-c2cnc(N)nc2)c(F)c1 [Example 717, 1-{[4′-(2-Aminopyrimidin-5-yl)-3′-fluorobiphenyl-2-yl]sulfonyl}-3,3-dimethylbutan-2-one]
15 | 330 |  | CC(C)(C(N)=O)S(=O)(=O)c1ccccc1-c1ccc(-c2cnc(N)cn2)c(F)c1 [Example 736, 2-{[4′-(5-Aminopyrazin-2-yl)-3′-fluorobiphenyl-2-yl]sulfonyl}-2-methylpropanamide]
16 | 11.7 |  | N#Cc1nc(N)cnc1-c1ccc(-c2ccccc2Oc2nccc(N)n2)cc1F [Example 745, 6-Amino-3-{2′-[(4-aminopyrimidin-2-yl)oxy]-3-fluorobiphenyl-4-yl}pyrazine-2-carbonitrile]
17 | 1160 |  | Nc1cnc(-c2ccc(-c3ccccc3C(=O)NCCO)cc2F)cn1 [Example 760, 4′-(5-Aminopyrazin-2-yl)-3′-fluoro-N-(2-hydroxyethyl)biphenyl-2-carboxamide]
18 | ~1750 |  | COc1c(-c2ccccc2NS(C)(=O)=O)ccc(-c2cnc(N)cn2)c1F [Example 837, N-[4′-(5-Aminopyrazin-2-yl)-3′-fluoro-2′-methoxybiphenyl-2-yl]methanesulfonamide]

Row | SMILES | Ki (wild type FLAP) [nM] | Ki [1] [nM]
19 | Nc1cnc(-c2ccc(-c3ccccc3S(=O)(=O)N3C[C@H](O)[C@@H](N4CCOCC4)C3)cc2F)cn1 (racemic) [Example 187, Racemic-1-{[4′-(5-Aminopyrazin-2-yl)-3′-fluorobiphenyl-2-yl]sulfonyl}-4-morpholin-4-ylpyrrolidin-3-ol trifluoroacetic acid salt] |  | 66
